Reference: ChEMBL document CHEMBL1134211, “8-Carboxamidocyclazocine analogues: redefining the structure-activity relationships of 2,6-methano-3-benzazocines” (Bioorg Med Chem Lett, 2001)

By UniProt entry, the sequences of proteins in these tests, tags left out. Where a name states a change or a piece, a line headed by the entry shows the natural chain unless it says otherwise.
UniProt P97266, whole entry: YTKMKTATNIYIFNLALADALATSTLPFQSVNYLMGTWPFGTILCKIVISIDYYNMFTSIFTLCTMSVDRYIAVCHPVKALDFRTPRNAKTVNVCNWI
UniProt P41144: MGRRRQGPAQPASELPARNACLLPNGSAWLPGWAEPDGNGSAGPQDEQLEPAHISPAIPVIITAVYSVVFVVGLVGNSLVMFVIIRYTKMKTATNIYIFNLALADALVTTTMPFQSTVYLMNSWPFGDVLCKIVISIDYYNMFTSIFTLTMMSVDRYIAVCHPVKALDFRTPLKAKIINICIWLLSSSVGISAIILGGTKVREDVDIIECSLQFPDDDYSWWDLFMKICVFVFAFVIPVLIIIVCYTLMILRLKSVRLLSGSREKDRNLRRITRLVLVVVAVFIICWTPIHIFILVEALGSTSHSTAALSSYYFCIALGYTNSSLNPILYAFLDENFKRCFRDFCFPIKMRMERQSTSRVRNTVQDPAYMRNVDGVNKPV

Legend:
Mu-type opioid receptor = Mu-type opioid receptor (Cavia porcellus, UniProt P97266); assay: Displacement of [3H]DAMGO from Opioid receptor mu 1 of guinea pig brain membranes
[1] = biological target: Kappa-type opioid receptor (Cavia porcellus, UniProt P41144); assay: Displacement of [3H]U-69593 from Opioid receptor kappa 1 of guinea pig brain membranes

Row | Compound | Ki (Mu-type opioid receptor) | Ki [1]
1 | C[C@@H]1[C@@H]2Cc3ccc(C(N)=O)cc3[C@]1(C)CCN2CC1CC1 | 63 nM | 67 nM
2 | C[C@H]1[C@H]2Cc3ccc(C(N)=O)cc3[C@@]1(C)CCN2CC1CC1 | 0.17 nM | 
3 | C[C@H]1C2Cc3ccc(C(N)=O)cc3[C@@]1(C)CCN2CC1CC1 (mixture of isomers) | 0.41 nM | 
